Chains of the proteins cited; added tags and fusions are not shown.
UniProt Q13564, whole entry, chain 1 of 2: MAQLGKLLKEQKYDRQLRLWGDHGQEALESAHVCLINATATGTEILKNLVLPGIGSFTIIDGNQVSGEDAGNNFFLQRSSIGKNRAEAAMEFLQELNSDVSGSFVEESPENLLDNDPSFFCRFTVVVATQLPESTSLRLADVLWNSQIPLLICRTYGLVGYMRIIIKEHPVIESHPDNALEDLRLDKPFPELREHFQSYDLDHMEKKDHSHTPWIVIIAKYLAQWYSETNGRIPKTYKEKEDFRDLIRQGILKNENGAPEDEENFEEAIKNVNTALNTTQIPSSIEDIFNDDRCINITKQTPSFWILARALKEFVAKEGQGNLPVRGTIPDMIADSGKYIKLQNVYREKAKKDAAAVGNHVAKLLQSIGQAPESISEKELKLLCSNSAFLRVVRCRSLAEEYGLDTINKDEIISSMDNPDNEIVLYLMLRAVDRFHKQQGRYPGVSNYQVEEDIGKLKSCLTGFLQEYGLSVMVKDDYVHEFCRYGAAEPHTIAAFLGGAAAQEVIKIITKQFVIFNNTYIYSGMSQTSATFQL

In publication PMC3822002 (Chembiochem : a European journal of chemical biology, 2013):

Target: Nedd8 activating enzyme (NAE), heterodimer of APPBP1 and Uba3 (UniProt Q13564)

In order of falling K1/2 of the ATP-PPi exchange reaction catalysed by NAE, saturating ATP:
1. pNedd8 (70VLALRGG76), peptide with the native C-terminal sequence of Nedd8  88 µM
2. pND22 (70VRLMFGG76), Nedd8-mimicking peptide  51 µM
3. pND20 (70VILTFGG76), Nedd8-mimicking peptide  42 µM
